An excerpt weighted towards active compounds, which were near 1.3% of everything screened.
PINK1 modulator: modulators of PINK1 expression. 410,000 tested, 0.2% active. Potency, µM (top dose mostly 76.6 µM), inactives show at the top dose activation (PINK1 increase), hits mostly activators. AID 624263. PINK1 immunofluorescence, high-content cytometry, 24 h; active = well fitted activation curve with a large enough effect; inconclusive = small, poorly fitted or top-dose-only effect; cell line not stated here; note: potency is the fitted concentration of half-maximal effect; % of control where 0% means no effect; nearly all actives have a fitted effect of over 65% in size
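Decision-based qHTS: stable cells, 24 h exposure to five compound concentrations, CCCP as control. Fixed cells stained for PINK1 plus nuclear, mitochondrial and cell markers, cytometer read.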
Giardia killer: Giardia lamblia killing | Giardia lamblia trophozoite viability | activity change, % at 7.66 µM, hits read low | 340,000 tested, 0.15% active; in the data active = activity change below about -80%; inconclusive = between about -30% and that limit;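 note: parasites exposed to compound for two days anaerobically before the ATP read; % is set by controls: 0 for no effect and ±100 for the full control effect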
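ATP-content bioluminescence gauges trophozoite survival. Cells (100/well) receive compound and incubate anaerobically for 48 hrs at 37 deg C; detection reagent follows for 15-30 min at room temperature.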
PTHR1 agonist: PTHR1 (human) receptor agonism. Q03431. Potency, µM (top dose mostly 115 µM), without a hit: at the highest dose activation, usual class: activators. HEK293 GP2 PTHR1 cells, GloSensor cAMP luminescence, 1 h. 410,000 tested, 0.075% active; note: potency is the fitted concentration of half-maximal effect; nearly all actives have a fitted effect of over 55% in size
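HEK-293-derived GP2 cells expressing PTHR1 and a GloSensor cAMP reporter, 3,000/well, plated overnight, given luciferin plus IBMX (each 0.5 mM as added) for 1 h at 37 °C, then compound for 1 h at 37 °C. Luminescence was read after 15 min at room temperature.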
ALOX12 inh: ALOX12 (human) lipoxygenase inhibition; P18054; purified 12hLO, xylenol orange hydroperoxide absorbance; Potency, µM (doses to about 108 µM), for the others: top-dose activity change, negative = inhibition, actives largely listed as inhibitors; 580,000 tested, 1.1% active; note: potency is the fitted concentration of half-maximal effect; % is set by controls: 0 for no effect and ±100 for the full control effect
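Hydroperoxide product was detected by ferrous iron/xylenol orange as the 573 to 405 nm absorbance ratio. Arachidonic acid at 40 uM (final) was turned over for 30 min at room temperature by 150 nM human 12hLO, pH 7.0 Hepes buffer, after 15 min compound preincubation.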
miR-21 FLuc: miR-21 reporter, rising signal. HeLa miR-21 FLuc reporter, luciferase, 48 h. Potency, µM (titrated, usually from 38.3 µM), without a hit: at the top dose reporter change, positive = more light. 340,000 tested, under 10 active. AID 2288; active = well fitted rising curve with a large enough effect; inconclusive = small, poorly fitted or top-dose-only effect; inactive = no such curve, though single readings can be large or run the other way;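 also: % of control where 0% means no effect; miR-21 action dims this reporter so a rising signal means less miR-21 action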
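HeLa cells stably expressing CMV-driven firefly luciferase with a downstream miR-21 binding sequence, endogenously expressing miR-21, were treated with titrations (up to about 40uM final) for 48 hours at 37 degree Celsius. Luciferase luminescence was read after lysis.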
ERG-DNA inh: ERG Ets/DNA interaction inhibition; P11308; fluorescence polarization, His-ERG Ets domain / labelled DNA; Potency, µM (doses to about 76.9 µM), for the others: at the top dose FP activity, negative = inhibition, usual class: inhibitors; 370,000 tested, 0.028% active; active = well fitted inhibition curve with a large enough effect in the polarisation, with a control signal flat; inconclusive = small, poorly fitted or top-dose-only effect, or effect the other way, or a change in a side signal; inactive = no such curve, though single readings can be large or run the other way; the % refers to the polarisation;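 note: polarization taken with two DNA probes labelled with fluorescein and Texas red; potency is the fitted concentration of half-maximal effect; % of control where 0% means no effect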
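His-tagged ERG Ets domain (1 uM in the protein solution; 300mM KCl, 50mM Tris-HCl, 1mM EDTA, 1mM DTT, pH 7.5) received compound, then a probe mix of 5 nM fluorescein-DNA and 100nM Texas-615-DNA. Fluorescence polarization was read for both dyes.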
* = called active by the depositor; i = inactive; ? = inconclusive; · = no result; ! = not active in a repeat. Unless noted, calls come from the whole dose curve; as a rule, active = well fitted curve in the direction sought with a large enough effect; inconclusive = small, poorly fitted or top-dose-only effect, or another doubt; inactive = no such curve, though single readings can be large; an effect the other way counts as inactive or inconclusive.

Screens by letter – A = PINK1 modulator; B = Giardia killer; C = PTHR1 agonist; D = ALOX12 inh; E = miR-21 FLuc; F = ERG-DNA inh
CC(=O)c1ccc(OCC(O)CN2CCN(CC(O)COc3ccc(C(C)=O)cc3)CC2)cc1 (stereo not given)
  A: 2% | B: -10 | C: i | D: 146% | E: -5% | F: 13%

C=Cc1ccc(Cn2c(C(=O)O)c(CNCc3ccccc3)c3ccc(OC)cc32)cc1
  A: -1% | B: · | C: i | D: 4µM* | E: 9% | F: 4%

C#CCOCCOCCOCCNc1nc(N2CCN(C(=O)[C@H](CCCCN)n3cc([C@@H](N)CO)nn3)CC2)nc(N2CCN(C(=O)[C@H](Cc3cc4ccccc4[nH]3)n3cc([C@@H](N)CC(C)C)nn3)CC2)n1
  A: · | B: · | C: · | D: · | E: 2% | F: ·

OC(CCc1cccc(Cl)c1)c1cccs1 (stereo not given)
  A: 1% | B: -12 | C: -6% | D: -2% | E: -39% | F: 9%

Cc1cccc(C(=O)Nc2sc(C)c(-c3ccccc3)c2C#N)c1
  A: 2% | B: -10 | C: -43% | D: ? | E: -40% | F: 4%

Cc1noc(C)c1C(=O)Nc1sc(C)c(-c2ccccc2)c1C#N
  A: 28µM* | B: 9 | C: -27% | D: -5% | E: -11% | F: -9%

CCOc1cccc2cc(C(=O)Oc3ccc(OC)cc3)c(=O)oc12
  A: 0% | B: 7 | C: i | D: 35µM* | E: -5% | F: -2%

COc1cccc2cc(C(=O)Oc3ccccc3)c(=O)oc12
  A: -1% | B: -5 | C: -30% | D: -3% | E: -5% | F: 11%

CC(C)(CNc1ccc([N+](=O)[O-])cc1C#N)N1CCOCC1
  A: 5% | B: 4 | C: -33% | D: 4% | E: -3% | F: 2%

C#CCn1c(C2CC(=O)N(c3ccc(OCC)cc3)C2)nc2ccccc21 (stereo not given)
  A: 0% | B: · | C: i | D: -24% | E: -11% | F: -17%

Cc1cccc(C)c1NC(=S)NC(=O)c1ccc(Br)o1
  A: 1% | B: 10 | C: -11% | D: 45µM* | E: 0% | F: 4%

Cc1cccc(NC(=S)NC(=O)c2ccc(Br)o2)c1C
  A: 7% | B: 4 | C: i | D: ? | E: -14% | F: 4%

CCOc1ccc(NC(=O)N2CCN(C(=O)c3ccco3)CC2)cc1
  A: -1% | B: -10 | C: -23% | D: ? | E: 0% | F: -6%

CCOC(=O)c1ccc(NC(=O)N2CCN(C(=O)c3ccco3)CC2)cc1
  A: -1% | B: 9 | C: i | D: 2% | E: 2% | F: 35µM*

O=C(O)CC1CCCN(c2cnn(CC3CC3)c(=O)c2)C1 (stereo not given)
  A: · | B: · | C: · | D: 10% | E: · | F: ·

CC(NC(=O)c1ccc2c(c1)CCCC2)c1ccc(F)cc1F (stereo not given)
  A: · | B: · | C: · | D: 40µM* | E: · | F: ·

COCc1ccc(C(=O)NC(C)c2ccc(F)cc2F)cc1 (stereo not given)
  A: · | B: · | C: · | D: -21% | E: · | F: ·

CC(C)n1c(CSCc2ccc(Cl)cc2Cl)n[nH]c1=S
  A: 2% | B: -14 | C: -91% | D: 45µM* | E: 16% | F: 3%

CCOC(=O)C1=C(N)Oc2cc(O)ccc2C1c1cccc(Cl)c1 (stereo not given)
  A: 2% | B: -5 | C: -24% | D: ? | E: 19% | F: -7%

CCOC(=O)C1=C(N)Oc2ccc(Br)cc2[C@@H]1[C@@H](C#N)C(=O)OCC
  A: · | B: · | C: · | D: 10µM* | E: · | F: ·

CCOC(=O)C1=C(N)Oc2cc(O)ccc2C1c1ccc(Br)cc1 (stereo not given)
  A: 14% | B: 19 | C: -57% | D: 25µM*! | E: -1% | F: 3%

CCOC(=O)C1=C(C)OC(N)=C(C#N)C1c1cc(F)ccc1F (stereo not given)
  A: · | B: 7 | C: i | D: -17% | E: 0% | F: ·

CC(NC(=O)COC(=O)c1ccc2c(=O)n3c(nc2c1)CCCCC3)c1ccccc1 (stereo not given)
  A: -2% | B: -6 | C: i | D: -4% | E: · | F: -5%

COc1ccc(-c2cnc(C(N)=O)c(=O)[nH]2)cc1
  A: 0% | B: · | C: -15% | D: 6.3µM* | E: · | F: ·

COc1ccc(C(O)c2ncc(-c3ccc(Cl)cc3)[nH]2)cc1 (stereo not given)
  A: 1% | B: · | C: i | D: ? | E: · | F: ·

CCc1ccccc1NC(=O)c1cc(-c2cccc(O)c2)on1
  A: 5% | B: -18 | C: -52% | D: 16% | E: -53% | F: 2%

Cc1nc2ccccc2c(C)c1CC(=O)NCCc1ccccc1F
  A: · | B: · | C: · | D: 18µM* | E: · | F: ·

Cc1ccc(C(=O)N2C[C@@H](CO)[C@H](c3ccccn3)C2)cc1C
  A: · | B: · | C: · | D: 8% | E: · | F: ·

Four entries from above, arranged by their value in ERG-DNA inh, highest first:
Compound | ERG-DNA inh
Cc1cccc(NC(=S)NC(=O)c2ccc(Br)o2)c1C | 4%
CCOc1cccc2cc(C(=O)Oc3ccc(OC)cc3)c(=O)oc12 | -2%
CC(NC(=O)COC(=O)c1ccc2c(=O)n3c(nc2c1)CCCCC3)c1ccccc1 (stereo not given) | -5%
CCOc1ccc(NC(=O)N2CCN(C(=O)c3ccco3)CC2)cc1 | -6%

Compound activity (PubChem BioAssay)
